This is an account of results in publication PMC8131325.

The target in experiment [1] is fatty acid binding protein 3 (UniProt P05413).
Experiment [2] has the same target. The experiment in a line: other fluorescence titration; ANS fluorescence (5 μM ANS, emission at 460 nm) of 2 μM FABP3 with increasing concentrations of αSyn or αSynP130-140; 50 mM Tris-HCl pH 7.4.

Substance “α-synuclein (from UniProt P37840 1-140) (natural protein)” displayed a dynamic light scattering: average particle size after a 1200 min incubation of αSyn with FABP3 (6 μm for αSyn alone) in experiment [1] of 0.63 μm. Also, the stoichiometry N (in general, the number of molecules, sites or subunits per partner or assembly) in experiment [2] was found to be 1.
